Source: patent US20260382616A1, “TREATMENT METHODS FOR SUBJECTS WITH NON-SMALL CELL LUNG CANCER HAVING AN ABERRATION IN EGFR” (published 2026)

Assay: Phase 1/2a study, safety
[1] = 100 mg BID (N=39), regardless of grade

## C=CC(=O)N[C@H]1C=C(C)c2c(-c3cnc4ccccc4c3)c3c(N)ncnc3n2C1
30 mg dose level
  DLTs: 0/8
45 mg dose level
  DLTs: 0/1
65 mg
  Treatment-related discontinuations: two
65 mg BID
  Dose reductions: 2/13
  Pneumonitis possibly related: one
65 mg dose level
  DLTs: 1/14
65 mg patient, previously had pneumonitis on osimertinib
  Pneumonitis, grade: grade 2
100 mg
  Treatment-related discontinuations: two
100 mg BID
  Dose reductions: 5/39
  Grade 3 or 4 ALT/AST increase: two
  Pneumonitis possibly related: two
100 mg BID (N=39)
  TEAE ≥Grade 3 ALT increased: 1 (2.6) No (%)
  TEAE ≥Grade 3 AST increased: 1 (2.6) No (%)
  TEAE ≥Grade 3 anemia: 1 (2.6) No (%)
  TEAE ≥Grade 3 diarrhea: 0 No (%)
  TEAE ≥Grade 3 disease progression: 1 (2.6) No (%)
  TEAE ≥Grade 3 dyspnea: 3 (7.7) No (%)
  TEAE ≥Grade 3 pneumonia: 3 (7.7) No (%)
100 mg BID (N=39), all grade
  TRAE AST increased, number: 3
  TRAE AST increased, percent: (8) %
  TRAE alopecia, number: 6
  TRAE alopecia, percent: (15) %
  TRAE anemia, number: 5
  TRAE anemia, percent: (13) %
  TRAE decreased appetite, number: 4
  TRAE decreased appetite, percent: (10) %
  TRAE diarrhea, number: 14
  TRAE diarrhea, percent: (36) %
  TRAE dry eye, number: 7
  TRAE dry eye, percent: (18) %
  TRAE dry skin, number: 7
  TRAE dry skin, percent: (18) %
  TRAE fatigue, number: 8
  TRAE fatigue, percent: (21) %
  TRAE nausea, number: 4
  TRAE nausea, percent: (10) %
  TRAE paronychia, number: 12
  TRAE paronychia, percent: (31) %
  TRAE rash, number: 32
  TRAE rash, percent: (82) %
  TRAE stomatitis, number: 5
  TRAE stomatitis, percent: (13) %
100 mg BID (N=39), grade ≥3
  TRAE AST increased, number: 1
  TRAE AST increased, percent: (2.6) %
  TRAE alopecia, number: 0
  TRAE anemia, number: 1
  TRAE anemia, percent: (2.6) %
  TRAE decreased appetite, number: 0
  TRAE diarrhea, number: 0
  TRAE dry eye, number: 0
  TRAE dry skin, number: 0
  TRAE fatigue, number: 0
  TRAE nausea, number: 0
  TRAE paronychia, number: 0
  TRAE rash, number: 0
  TRAE stomatitis, number: 0
[1]
  TEAE ALT increased, number (percent): 4 (10.3)
  TEAE AST increased, number (percent): 5 (12.8)
  TEAE alopecia, number (percent): 9 (23.1)
  TEAE anemia, number (percent): 8 (20.5)
  TEAE arthralgia, number (percent): 5 (12.8)
  TEAE constipation, number (percent): 9 (23.1)
  TEAE cough, number (percent): 10 (25.6)
  TEAE decreased appetite, number (percent): 11 (28.2)
  TEAE diarrhea, number (percent): 18 (46.2)
  TEAE dizziness, number (percent): 6 (15.4)
  TEAE dry eye, number (percent): 7 (17.9)
  TEAE dry skin, number (percent): 8 (20.5)
  TEAE dyspnea, number (percent): 13 (33.3)
  TEAE edema peripheral, number (percent): 4 (10.3)
  TEAE fatigue, number (percent): 15 (38.5)
  TEAE headache, number (percent): 7 (17.9)
  TEAE insomnia, number (percent): 5 (12.8)
  TEAE nausea, number (percent): 10 (25.6)
  TEAE paronychia, number (percent): 13 (33.3)
  TEAE pyrexia, number (percent): 7 (17.9)
  TEAE rash, number (percent): 33 (84.6)
  TEAE stomatitis, number (percent): 5 (12.8)
  TEAE vomiting, number (percent): 9 (23.1)
100 mg BID or lower
  Grade ≥3 diarrhea or rash: No patients
